Test results reported in PubChem BioAssay AID504894 (National Center for Advancing Translational Sciences (NCATS), 2011).
Only a part is listed here, and it is no random draw. Active and inactive are the calls of the source. Calls follow the shape of the dose curve; as a rule, active = well fitted activation curve with a large enough effect; inconclusive = small, poorly fitted or top-dose-only effect, or another doubt; inactive = no such curve, though single readings can be large or run the other way.

Assay: Activators of T cell receptors: qHTS campaign; also: % of control where 0% means no effect
Conditions: primary human leukocytes, anti-CD3, IL-2 HTRF, 48 h; at 9.22 µM (top of the series)
Description: Normally activation of naive T cells requires two signals. 1. A signal through the T cell receptor (TCR) which provides antigen specificity to the response. 2. Signals through co-stimulatory molecules, which are necessary for proliferation, survival and cytokine production. In the absence of co-stimulatory signals T cells are not effectively activated, and may even be rendered anergic or unresponsive to subsequent signaling. This lack of costimulation has been shown in multiple model systems to be a major factor in the limited strength and effectiveness of anti-tumor T cell responses. The goal of this project is to identify small molecule compounds that will stimulate T cell activation in the presence of TCR signaling but in the absence of co-stimulatory signals, thereby allowing activation of naive T cells in the absence of co-stimulation. Identification of such compounds would have clear experimental and clinical applications in instances where desirable antigen-specific immune responses are not generated due to a lack of co-stimulation, for example in the generation of anti-tumor responses. […] The screen will be carried out using a novel homogeneous time resolved fluorescence energy transfer (HTRF) assay to measure production of the cytokine IL-2 by activated T cells and will be tested against the NIH Molecular Libraries Small Molecule Repository (MLSMR). […]

Question: With `CN(C)CCOC(=O)C(O)(c1ccccc1)C1CCCCC1` (configuration not stated) as the compound, how does the activation of IL-2 secretion read?
Answer: inactive: 2.73%

Question: Which activation of IL-2 secretion does the source give for `CP(=O)(Nc1ccc(Cl)cc1)Oc1ccc(F)cc1` (configuration not stated) here?
Answer: inactive: -2.3%
